The results in this text go back to ChEMBL document CHEMBL1649115, “Enhanced susceptibility to antifungal oligopeptides in yeast strains overexpressing ABC multidrug efflux pumps” (Antimicrob Agents Chemother, 2008).

Converted amounts (≈) assume the structure as drawn.

Usually MIC stands for the lowest concentration that inhibits growth of the organism. A higher MIC goes with weaker potency.

This test concerns Candida albicans. Briefly: Antifungal activity against fluconazole resistant Candida albicans isolate Gu5 overexpressing CDR1 and CDR2 in RPMI-1640 buffered medium after 24 hrs by microdilution method. The class given is functional. Put shortly:
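C. albicans cells were grown in 2% glucose, 1% yeast extract, 1% Bacto peptone medium before testing. CARE-2 fingerprinting confirmed that each pair is a single strain.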
On the technique in general: In broth dilution the organism is exposed to a series of concentrations in liquid medium.

`OC(Cn1cncn1)(Cn1cncn1)c1ccc(F)cc1F` [FLUCONAZOLE] showed an MIC of 256 µg/mL (≈ 836 µM).
